Results: patent publication US20100015650

System: BRB1 tyrosine kinase substrate peptide

Substance: SRC
- Signal to Noise Ratio with BRB1 Peptide (TR-FRET kinase assay; kinase 0.5 nM): 31.7

Substance: SYK
- Signal to Noise Ratio with BRB1 Peptide (TR-FRET kinase assay; kinase 0.5 nM): 24.6
